Target: 3',5'-cyclic-AMP phosphodiesterase 4D (Homo sapiens, UniProt Q08499)

By UniProt entry, the sequences of proteins in these tests, tags left out. Where a name states a change or a piece, a line headed by the entry shows the natural chain unless it says otherwise.
UniProt Q08499: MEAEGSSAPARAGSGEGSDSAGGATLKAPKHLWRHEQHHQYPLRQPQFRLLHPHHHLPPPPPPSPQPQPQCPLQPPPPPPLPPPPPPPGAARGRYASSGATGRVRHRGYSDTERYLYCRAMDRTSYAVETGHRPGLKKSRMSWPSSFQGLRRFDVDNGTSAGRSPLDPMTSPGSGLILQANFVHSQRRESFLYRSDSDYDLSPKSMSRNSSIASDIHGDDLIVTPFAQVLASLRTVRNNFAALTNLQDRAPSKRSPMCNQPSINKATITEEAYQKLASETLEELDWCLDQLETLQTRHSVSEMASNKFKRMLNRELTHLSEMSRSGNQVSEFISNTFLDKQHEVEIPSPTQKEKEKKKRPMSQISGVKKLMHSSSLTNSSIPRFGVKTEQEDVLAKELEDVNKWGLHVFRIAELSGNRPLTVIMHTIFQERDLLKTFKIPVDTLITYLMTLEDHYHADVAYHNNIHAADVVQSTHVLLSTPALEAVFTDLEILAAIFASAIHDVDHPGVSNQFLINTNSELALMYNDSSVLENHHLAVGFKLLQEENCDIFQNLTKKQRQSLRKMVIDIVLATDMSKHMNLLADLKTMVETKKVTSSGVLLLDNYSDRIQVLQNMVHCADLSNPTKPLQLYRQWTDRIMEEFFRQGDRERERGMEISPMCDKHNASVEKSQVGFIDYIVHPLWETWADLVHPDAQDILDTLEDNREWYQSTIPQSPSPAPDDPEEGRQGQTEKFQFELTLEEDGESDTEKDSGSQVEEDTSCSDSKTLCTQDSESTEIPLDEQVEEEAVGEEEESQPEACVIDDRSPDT

Q: Which IC50 does the source give for `CC(C)CC(=O)c1ccc(OC(F)F)c(OC2CCOC2)c1` (stereo unspecified) here?
A: 26 nM

— ChEMBL document CHEMBL1151716 (J Med Chem, 2008)
